Measured values published in PubChem BioAssay AID540263 (National Center for Advancing Translational Sciences (NCATS), 2011).
In all, about 340,000 compounds went through this assay and about 100 (0.029%) were called active. Roughly 8% stayed inconclusive and do not appear here. Calls come from the whole dose curve. Only a selection was taken, and actives are over-represented in it overall.

The chains behind the UniProt entries cited, without tags or fusion partners.
UniProt Q14974, whole entry, looked up: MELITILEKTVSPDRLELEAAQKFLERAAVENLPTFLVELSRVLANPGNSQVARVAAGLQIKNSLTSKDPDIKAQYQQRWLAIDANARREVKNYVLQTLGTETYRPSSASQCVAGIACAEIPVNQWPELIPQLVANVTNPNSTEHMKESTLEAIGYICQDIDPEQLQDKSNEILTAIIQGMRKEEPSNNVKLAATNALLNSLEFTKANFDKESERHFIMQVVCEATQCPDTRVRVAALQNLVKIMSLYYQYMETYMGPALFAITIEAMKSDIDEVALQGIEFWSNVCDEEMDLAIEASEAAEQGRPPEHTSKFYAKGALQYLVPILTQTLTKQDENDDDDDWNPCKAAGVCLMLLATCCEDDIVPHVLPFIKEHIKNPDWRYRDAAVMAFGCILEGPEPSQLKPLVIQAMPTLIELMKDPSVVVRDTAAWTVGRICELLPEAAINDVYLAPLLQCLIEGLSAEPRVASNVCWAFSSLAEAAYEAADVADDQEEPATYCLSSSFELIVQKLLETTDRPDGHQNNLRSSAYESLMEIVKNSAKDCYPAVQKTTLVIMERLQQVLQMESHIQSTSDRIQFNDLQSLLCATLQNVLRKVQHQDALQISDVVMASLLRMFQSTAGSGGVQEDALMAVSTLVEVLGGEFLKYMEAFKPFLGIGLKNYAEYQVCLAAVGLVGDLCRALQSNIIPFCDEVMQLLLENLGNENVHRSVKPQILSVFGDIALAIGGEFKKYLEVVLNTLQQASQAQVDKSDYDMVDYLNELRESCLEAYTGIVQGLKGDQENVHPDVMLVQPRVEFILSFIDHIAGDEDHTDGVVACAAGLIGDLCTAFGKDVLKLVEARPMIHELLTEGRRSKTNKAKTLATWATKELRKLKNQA

The compounds below were run against Importin subunit beta-1 (Homo sapiens) (UniProt Q14974) (assay: qHTS Assay for Inhibitors of Rango (Ran-regulated importin-beta cargo) - Importin beta complex formation). Settings: Rango CFP/YFP FRET sensor + importin beta, 45 min; series mostly up to 92.2 µM; inhibition of complex formation: at the top concentration.
Excerpt: NIH Molecular Libraries Probe Production Centers Network [MLPCN] NIH Chemical Genomics Center [NCGC] MLPCN Grant: R03 MH090808-01A1 Assay Submitter (PI): Petr Kalab NCGC Assay Overview: The small GTPase Ran regulates transport of macromolecules between the nucleus and the cytoplasm (nuclear transport) and has important functions in mitotic spindle assembly, nuclear envelope (NE) formation and nuclear pore complex (NPC) assembly. RanGTP gradient is thought to promote spindle assembly by providing a spatial clue to microtubule nucleation and Aurora A activation. Because the localized release and binding of importin alpha cargo relays this spatial clue to SAFs, inhibitors of the Rango - importin beta complex can then be used in further understanding their role in cell cycle specifically in mitosis progression. […] Activation of Aurora A has been linked to different types of cancer and a number of Aurora kinase inhibitors are being developed as potential canter therapeutics therefore, identified inhibitors of this complex could be developed into potential anti-mitotic probes for cancer treatment. Purified recombinant proteins Rango and importin beta were provided by the assay submitter. The assay used a fluorescence resonance energy transfer (FRET) Rango biosensor that contains the IBB of human snurportin 1 flanked by yellow fluorescent protein (EYFP) at the amino terminus and cerulean CFP10 at the carboxy terminus. […] Inhibitors will therefore be identified based on the ability to interfere with the FRET signal decrease. DMSO treated and no importin beta (buffer only) wells were used as negative and positive controls respectively. FRET readings were obtained at two time points. FRET reading prior to importin beta addition (pre-read) were used flag potential compound interference; FRET reading after importin beta addition (post-read) were used to identify inhibitors using the FRET ratio parameter.
NCGC Assay Protocol Summary: Two and a half uL/well of Rango-buffer solution (50 nM Rango, 1x PBS, 1mM DTT, 0.02% Tween-20, 0.1% BSA final concentrations) was dispensed into 1536-well assay plates (Greiner, solid black medium-binding plates) with Aurora Discovery BioRAPTR Flying Reagent Dispenser (FRD; Beckton-Dickenson). Compound solution (23 nL) was transferred to the assay plate using Kalypsys pin tool equipped with a 1536-pin tool and incubated at room temperature for 5 min followed by a FRET pre-read using the PerkinElmer Envision plate reader. Two and a half uL/well of Importin beta - buffer solution (0.125 microM importin beta, 1x PBS, 1mM DTT, 0.02% Tween-20, 0.1% BSA final concentrations) were then added and incubated at room temperature giving a final reaction volume of 5uL. After 45min FRET post-read was obtained via the Envision plate reader using the same optics and settings as the pre-read (CFP/YFP optimized dual optical module D450/D505; excitation mirror CFP 430/24 nm; and emission filters CFP 486/10 nm and YFP 530/10 nm).
Note: nearly all actives have a fitted effect of over 15% in size.
Potency is the fitted concentration of half-maximal effect; tags give direction and shape of the fitted curve.
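Throughout, for inhibition of complex formation: 0% = DMSO wells and 100% = buffer wells lacking importin beta.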

| SMILES | inhibition of complex formation | Potency |
| --- | --- | --- |
| C#CCOCCOCCOCCNc1nc(N2CCN(C(=O)Cn3cc(CCO)nn3)CC2)nc(N2CCN(C(=O)[C@H](CCCCN)n3cc(CCCC)nn3)CC2)n1 | 2.5% (inactive) | – |
| O=S1(=O)CCOC[C@H](Cc2ccccc2)N1Cc1ccccc1Br | 1.72% (inactive) | – |
| Cc1ccc(Oc2nc(-c3ccccn3)nc3ccccc23)cc1 | 1.95% (inactive) | – |
| CC(C)(C)Nc1nc(-c2ccccn2)nc2ccccc12 | – | 58 µM (active) |
| Cc1nc2ccccc2c(C(=O)O)c1-c1ccccn1 | -3.52% (inactive) | – |
| COc1cc2c(cc1CNC[C@H]1O[C@@H](n3cnc(C(N)=O)n3)[C@H](O)[C@@H]1O)OCO2 | 0.344% (inactive) | – |
| NC1=NOC(=O)C1C1CCCCC1 (centres undefined) | 2.74% (inactive) | – |
| NC(=S)NN=C1CCCC(C(F)(F)F)C1 (centres undefined) | 0.299% (inactive) | – |
| O=C(OC12CC3CC(CC(C3)C1)C2)c1ccc(NCc2cc(O)ccc2O)cc1 | 0.607% (inactive) | – |
| O=C(O)c1ccc([N+](=O)[O-])cc1Sc1ccsc1 | -1.6% (inactive) | – |
| CN(CCc1ccccc1)C(=O)c1cccc(NC(=O)Cc2cccc(NC(=O)C3CCCN(C(=O)C4CCC4)C3)c2)c1 (centres undefined) | 1.49% (inactive) | – |
| CN(C(=O)c1cccc(NC(=O)Cc2ccc(NC(=O)C3CCCN(C(=O)C4CC4)C3)cc2)c1)C1CC1 (centres undefined) | 5.33% (inactive) | – |
| C=CCN1C=C(C(=O)c2ccccc2)C(=O)CC1 | 1.13% (inactive) | – |
| Cc1nc(Nc2ccccc2C)c2cnn(C)c2n1 | 0.799% (inactive) | – |
| O=C(c1cccc(S(=O)(=O)N2CCCCCC2)c1)N1CCN(Cc2ccccc2)CC1 | 2.11% (inactive) | – |
| C=CCOC(=O)N1CCC2CC1c1cc(-c3ccc(OC)cc3)ccc12 (centres undefined) | -2.77% (inactive) | – |
| O=C(NCCc1ccccc1)c1c[nH]c2ccc(F)cc2c1=O | -0.0045% (inactive) | – |
| COc1ccc(CCC(=O)Nc2ccc(Cl)c(S(=O)(=O)N3CCOCC3)c2)cc1OC | -0.735% (inactive) | – |
| O=C(CNC(=O)c1cc(S(=O)(=O)N2CCOCC2)ccc1N1CCCC1)Nc1ccc(F)c(F)c1 | 0.285% (inactive) | – |
| Cc1ccc(NC(=O)C(C)OC(=O)C2CC3CCCC(C2)C3=O)cc1S(=O)(=O)N1CCOCC1 (centres undefined) | -0.445% (inactive) | – |
| Cn1cc(C2OC(=O)c3ccccc32)c2ccccc21 (centres undefined) | -2.51% (inactive) | – |
| O=C(Nc1ccc(S(=O)(=O)N2CCOCC2)cc1)C1CCN(S(=O)(=O)c2ccc(Cl)cc2)CC1 | -0.232% (inactive) | – |
| CC1C(C)N(C(=O)CCl)c2ccccc2N1C(=O)CCl (centres undefined) | 2.49% (inactive) | – |
| NS(=O)(=O)c1ccc(CCNC(=O)c2ccc(Cl)c(S(=O)(=O)N3CCCCCC3)c2)cc1 | -0.982% (inactive) | – |
| O=C1c2ccccc2C(=O)N1CCCCCCN1C(=O)c2ccccc2C1=O | -4.66% (inactive) | – |
| CC(C)C[C@H]1CN([C@@H](CC(C)C)CN2CCC[C@@H]2CN2C(=O)C(=O)NC[C@@H]2Cc2ccccc2)C(=O)C(=O)N1CCc1ccccc1 | -4.53% (inactive) | – |
| COc1ccc(-c2ccc3c(c2)C2CC3CCN2CCC#N)cc1 (centres undefined) | -0.906% (inactive) | – |

| SMILES | inhibition of complex formation | Potency |
| --- | --- | --- |
| CN(C)C(CNC(=O)c1cc2ccccc2o1)c1ccccc1 (centres undefined) | 0.201% (inactive) | – |
| CCCCNC1(C#N)CCN(Cc2ccccc2)CC1 | -0.281% (inactive) | – |
| NC(=O)C1(Nc2ccccc2Cl)CCCC1 | 1.43% (inactive) | – |
| COc1ccc(S(=O)(=O)N2CCc3ccccc32)cc1C(=O)Nc1cc(S(C)(=O)=O)ccc1Cl | 1.2% (inactive) | – |
| Cc1cc(NC(=O)C(C)SCC(=O)Nc2cccc(S(=O)(=O)N3CCCCCC3)c2)no1 (centres undefined) | -13.4% (inactive) | – |
| NC(=O)c1ncn([C@@H]2O[C@H](CN=C3NS(=O)(=O)c4ccccc43)[C@@H](O)[C@H]2O)n1 | 0.0699% (inactive) | – |
| Cc1cc([N+](=O)[O-])c(=O)[nH]c1C | -4.18% (inactive) | – |
| O=C1OC(Cc2ccccc2)C(c2ccccc2)C1=O (centres undefined) | 1.66% (inactive) | – |
| O=C(Nc1ccn(CCCNCc2ccc3[nH]ccc3c2)c(=O)n1)OCc1ccccc1 | 1% (inactive) | – |
| CCCCNCCS(=O)(=O)NCc1ccccc1 | -2.8% (inactive) | – |
| CNc1nc(=O)n(C2CCCO2)cc1C (centres undefined) | -3.1% (inactive) | – |
| S=C(Nc1ccccc1)Nc1ccc2ccccc2c1 | -0.599% (inactive) | – |
| COc1ccc(S(=O)(=O)N2C[C@H]3CON(C)[C@H]3C[C@H]2c2cccc(Br)c2)cc1 | 1.49% (inactive) | – |
| Cc1ccc(-c2csc(C(C#N)=C(O)CN3CCN(C(=O)c4ccco4)CC3)n2)cc1 | -1.82% (inactive) | – |
| Cc1ccc(S(=O)(=O)N2CCC(C(=O)N3CCCCCCC3)CC2)cc1 | 4.24% (inactive) | – |
| CCCCC(=O)NC(c1ccc(OC)c(OC)c1)c1ccc2cccnc2c1O (centres undefined) | 1.17% (inactive) | – |
| CCC1(C)COC(c2ccc(OC)c(OC)c2)OC1 (centres undefined) | 0.785% (inactive) | – |
| CCC(C)C1(C2CCCC2)NC(=O)NC1=O (centres undefined) | -3.68% (inactive) | – |
| Cc1nn(-c2ccc(F)cc2)c(Cl)c1/C=C(/CCC(=O)O)c1nc2ccccc2s1 | -3.7% (inactive) | – |
| COc1cc(OC)c(C(=O)NNC(=O)c2ccc(NS(=O)(=O)c3cccs3)cc2)cc1OC | -0.772% (inactive) | – |
| CC(=O)OCC1(O)CC23CCC4c5ccoc5CCC4(C)C2CCC1C3 (centres undefined) | 0.228% (inactive) | – |
| CC1CCCN(C(=O)Cn2c(=O)oc3cc(S(=O)(=O)N4CCCCC4C)ccc32)C1 (centres undefined) | -0.022% (inactive) | – |
| CCCCN(C(=O)CSCc1ccc(C)cc1)c1c(N)n(Cc2ccccc2)c(=O)[nH]c1=O | -2.96% (inactive) | – |
| OCC1(CO)CC2(C1)CC(CO)(CO)C2 | 2.26% (inactive) | – |
| Cc1ccc(S(=O)(=O)CC(=O)Nc2nnc(C)s2)cc1 | – | 65.1 µM (active) |
| Cc1ccc(S(=O)(=O)CC(=O)Nc2sc(C)c(C)c2C(N)=O)cc1 | -2.87% (inactive) | – |
| Cc1ccc(S(=O)(=O)CCC(=O)Nc2nnc(CC(C)C)s2)cc1 | -0.478% (inactive) | – |
